Measurements reported in publication PMC10740061 (Food Chemistry: X, 2023).

Test system: Caco-2 monolayer
Assay: Caco-2 monolayer transmembrane transport, apical to basolateral
Type: in vitro ADME, human
Conditions: WD (wheat flour digested products) 400 µg/mL; 40 µM flavonoid; 6 h; A to B; mean ± SD (n = 3)

## Oc1cc(O)c2c(c1)O[C@H](c1ccc(O)c(O)c1)[C@@H](O)C2 [(+)-Catechin]
  PappAtoB: 10.77 ± 0.07^a × 10^-6 cm/s

Marks after values point to notes of the source that are not given here.
